{"sequences": {"note": "Amino acid sequences for entries named in this document (tags omitted). Residues count along the entry.", "UniProt A0ACI6RKW0, 1-515": "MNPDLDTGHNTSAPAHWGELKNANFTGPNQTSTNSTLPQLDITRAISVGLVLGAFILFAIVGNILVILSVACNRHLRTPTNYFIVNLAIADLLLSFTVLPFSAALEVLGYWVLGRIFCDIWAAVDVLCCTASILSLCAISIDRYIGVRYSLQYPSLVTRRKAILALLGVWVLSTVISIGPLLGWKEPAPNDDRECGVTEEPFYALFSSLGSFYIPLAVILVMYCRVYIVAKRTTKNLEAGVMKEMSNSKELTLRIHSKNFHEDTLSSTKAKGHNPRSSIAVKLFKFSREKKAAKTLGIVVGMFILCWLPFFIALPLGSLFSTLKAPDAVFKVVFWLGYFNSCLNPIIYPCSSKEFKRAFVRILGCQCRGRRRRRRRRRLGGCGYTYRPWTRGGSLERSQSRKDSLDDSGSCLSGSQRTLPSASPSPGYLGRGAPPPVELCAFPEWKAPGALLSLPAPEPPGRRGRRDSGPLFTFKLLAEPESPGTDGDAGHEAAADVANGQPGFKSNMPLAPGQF"}, "source": "paper PMC4231100", "about": "“Cerebral Artery Alpha-1 AR Subtypes: High Altitude Long-Term Acclimatization Responses” (PLoS ONE, 2014)", "biological_target": "α1B-AR (Ovis aries, UniProt A0ACI6RKW0)", "experiment": "functional antagonism (KB) of phenylephrine-induced contraction in isolated arteries"}
{"smiles": "CN(CCCl)Cc1cc(Cl)c(NC2=NCCN2)c(Cl)c1", "values": [{"measurement": "Kb", "result": 0.53, "unit": "nM"}]}
